Values quoted from earlier work as cited in patent US20080275009A1, “ORAL ADMINISTRATION OF N-(2-CHLORO-6-METHYLPHENYL)-2-[[6-[4-(2-HYDROXYETHYL)-1-PIPERAZINYL]-2-METHYL-4-PYRIMIDINYL]AMINO]-1,3-THIAZOLE-5-CARBOXAMIDE AND SALTS THEREOF” (Bristol-Myers Squibb Company, priority 2005, published 2008).

The chains behind the UniProt entries cited, without tags or fusion partners. Residues count along the entry.
UniProt P10721, 26-976: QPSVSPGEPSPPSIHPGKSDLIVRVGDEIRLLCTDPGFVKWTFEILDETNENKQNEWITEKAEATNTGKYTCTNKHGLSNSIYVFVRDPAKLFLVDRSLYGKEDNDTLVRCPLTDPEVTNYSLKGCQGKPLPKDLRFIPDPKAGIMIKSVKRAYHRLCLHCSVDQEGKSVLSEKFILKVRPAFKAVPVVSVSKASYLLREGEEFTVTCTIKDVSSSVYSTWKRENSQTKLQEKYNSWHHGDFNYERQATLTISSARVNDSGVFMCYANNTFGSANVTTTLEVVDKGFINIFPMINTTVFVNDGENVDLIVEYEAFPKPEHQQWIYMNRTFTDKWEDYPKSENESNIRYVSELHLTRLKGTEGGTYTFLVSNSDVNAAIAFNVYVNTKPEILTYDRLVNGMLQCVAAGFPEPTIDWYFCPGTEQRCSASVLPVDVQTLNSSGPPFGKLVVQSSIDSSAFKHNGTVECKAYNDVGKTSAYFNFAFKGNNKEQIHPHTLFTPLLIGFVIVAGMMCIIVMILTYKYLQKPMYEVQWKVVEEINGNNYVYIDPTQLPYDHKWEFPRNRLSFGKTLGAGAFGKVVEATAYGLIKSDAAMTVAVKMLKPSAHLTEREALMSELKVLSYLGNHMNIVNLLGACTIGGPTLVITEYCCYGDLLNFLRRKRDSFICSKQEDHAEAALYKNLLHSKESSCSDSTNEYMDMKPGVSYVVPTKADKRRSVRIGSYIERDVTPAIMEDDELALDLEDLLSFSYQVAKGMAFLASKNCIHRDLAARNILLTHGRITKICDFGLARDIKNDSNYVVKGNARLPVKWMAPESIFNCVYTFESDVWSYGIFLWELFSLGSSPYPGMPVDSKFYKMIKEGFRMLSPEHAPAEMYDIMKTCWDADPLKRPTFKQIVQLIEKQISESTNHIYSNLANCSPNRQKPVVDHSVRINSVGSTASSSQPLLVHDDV

Molecular target: c-KIT (Homo sapiens, UniProt P10721)
Conditions: general statement, method or value not given; cited from earlier work

Compound: Cc1nc(Nc2ncc(C(=O)Nc3c(C)cccc3Cl)s2)cc(N2CCN(CCO)CC2)n1 [Compound I, N-(2-chloro-6-methylphenyl)-2-((6-(4-(2-hydroxyethyl)-1-piperazinyl)-2-methyl-4-pyrimidinyl)amino)-1,3-thiazole-5-carboxamide]
- inhibition of c-KIT: potent inhibitor
